Measured values as given in patent publication US10202345B2, “Substituted azaspiro(4.5)decane derivatives” (priority 2014, dated 2019).

Test system: rats
Assay: Analgesia in the tail flick (focal ray) test in rats, intravenous administration

CN(C)C1(c2cccs2)CCC2(CCN(C(=O)CC3CC3)C2)CC1 (stereo not shown)
Tail flick rat, i.v. ED50 rat [μg/kg]: 3.36 µg/kg
